AlphaSeq binding of Ab-95 light chain variants to a spike HR2 peptide

Target: peptide PDVDLGDISGINAS, taken from heptad repeat 2 (HR2) of SARS-CoV-2 spike.

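The parent was found by panning a naive human phage display library on the peptide. AAYL52 was designed without a model: most single CDR substitutions and a random sample of double and triple ones. In AlphaSeq, yeast of one mating type display the scFv and yeast of the other type display the target. The frequency of each diploid, read from paired DNA barcodes, reflects how well the two displayed proteins bind. The ratio of observed to expected reads was calibrated, replicate by replicate, on BCL2-family standards whose Kd was known from biolayer interferometry. Each pool was mated in three replicate cultures.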

Parent scFv Ab-95: VH joined to VL by a (GGGGS)3 linker. Changes lie in the light chain CDRs alone.
VH: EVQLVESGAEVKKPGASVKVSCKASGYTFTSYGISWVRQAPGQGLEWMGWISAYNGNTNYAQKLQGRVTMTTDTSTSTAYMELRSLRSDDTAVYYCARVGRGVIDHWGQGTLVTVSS
VL: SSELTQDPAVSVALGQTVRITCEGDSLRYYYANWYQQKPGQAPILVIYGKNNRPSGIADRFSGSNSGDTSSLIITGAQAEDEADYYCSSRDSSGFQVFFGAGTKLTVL

Positions count from residue 1 of the parent VL; N33I puts I in place of N.
Numbers give log10(Kd / nM), so 0 is 1 nM and 3 is 1 µM. Smaller is tighter.
A pair that was not seen in that replicate is written "nd"; this usually means weak binding, but a binder can also be missed.
As a blank, each scFv also met three strains without target: over library AAYL52, 28% of these pairings were detected, typically at 3.91 and seldom below 2.90. For each scFv, signals with the empty controls are counted beside the result, with their mean in brackets.
In this assay the parent's reference entry averaged 2.31; its copy inside this library read 2.25.

changes,"log10 Kd, replicates",control signals
N33I/S88D,2.99 nd nd,1/9 (4.13)
S55C/S88F,3.46 3.39 2.52,4/9 (4.06)
R28F/K50C/S55K,nd 2.94 nd,4/9 (3.53)
S89M/F98L,4.28 nd nd,2/9 (4.01)
Y31R/S55W/F98S,3.25 4.13 2.71,1/9 (3.34)
R53T/G94H/V97W,3.88 3.10 3.95,2/9 (3.03)
D25H/Y29G/V97H,2.60 3.05 3.62,2/9 (4.26)
E23D/L27K/S55E,3.29 nd nd,3/9 (3.54)
R28W/Y30D/N52S,3.00 2.61 2.82,4/9 (4.15)
E23C/S92M/G94R,3.59 3.11 2.25,2/9 (4.48)
N51P/S92K/V97Q,nd nd 3.39,0/9
Y31I/G94I/F98S,3.74 nd 2.53,6/9 (3.81)
G49A/N51Q/G94R,nd 5.38 nd,4/9 (4.04)
G24L/P54A/R90Y,3.02 3.44 3.32,2/9 (3.47)
G24N/Y30G/P54M,1.96 2.15 1.95,2/9 (4.73)
G24V/G49Y/S89P,nd nd nd,2/9 (3.82)
G49M/K50R/V97G,4.43 nd 4.22,0/9
R28Q/Y31H/S92F,2.19 2.41 1.49,0/9
N52Y/R90A/F95C,nd 3.67 nd,2/9 (4.73)
N33H/R53N,nd 4.27 nd,3/9 (4.19)
G24E/R28Q/A32P,2.07 1.53 1.60,4/9 (4.05)
G94P/Q96H,2.80 2.90 2.10,5/9 (4.46)
Y29W/R53G/D91I,nd nd nd,2/9 (3.76)
S26K/R28P/S89L,nd 3.20 2.83,0/9
L27S/R28T/F95Y,3.98 nd 4.58,0/9
S26E/R28H/K50C,3.70 4.95 3.86,4/9 (4.29)
Y29K/K50Q/G94E,2.31 1.76 1.81,5/9 (4.12)
Y29K/R53W/F95L,nd 2.71 3.81,2/9 (2.87)
N51R/G94N/F95Q,3.58 nd nd,0/9
G49P/R53N/S89N,4.55 nd nd,3/9 (4.25)
D25H/Y30A/S55Q,1.25 1.18 0.42,5/9 (4.78)

For reference, 2 entries of the list once more:

| changes | log10 Kd, replicates | control signals |
|---|---|---|
| N52Y/R90A/F95C | nd 3.67 nd | 2/9 (4.73) |
| D25H/Y30A/S55Q | 1.25 1.18 0.42 | 5/9 (4.78) |

The measurements come from Engelhart et al. 2022 (doi:10.1038/s41597-022-01779-4) through the FLAb antibody collection.